The record followed here is ChEMBL document CHEMBL1142545, “1,3-Dialkyl-8-(hetero)aryl-9-OH-9-deazaxanthines as potent A2B adenosine receptor antagonists: design, synthesis, structure-affinity and structure-selectivity relationships” (Bioorg Med Chem, 2008).

≈ marks a conversion by molar mass, not a printed value.

The nature of data set [1]: Methanol-water partition coefficient, log K by RP-HPLC. The data set is classed as physicochemical. Summed up: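 Reverse-phase HPLC with water–methanol 40/60 (v/v) mobile phase at 1.0 ml/min; dead time from KI in methanol; retention times in minutes; log k from capacity factor taken as lipophilicity index.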
The next data set has as its target T1, Adenosine receptor A2b (Homo sapiens, UniProt P29275).
T1 sequence (P29275 whole entry): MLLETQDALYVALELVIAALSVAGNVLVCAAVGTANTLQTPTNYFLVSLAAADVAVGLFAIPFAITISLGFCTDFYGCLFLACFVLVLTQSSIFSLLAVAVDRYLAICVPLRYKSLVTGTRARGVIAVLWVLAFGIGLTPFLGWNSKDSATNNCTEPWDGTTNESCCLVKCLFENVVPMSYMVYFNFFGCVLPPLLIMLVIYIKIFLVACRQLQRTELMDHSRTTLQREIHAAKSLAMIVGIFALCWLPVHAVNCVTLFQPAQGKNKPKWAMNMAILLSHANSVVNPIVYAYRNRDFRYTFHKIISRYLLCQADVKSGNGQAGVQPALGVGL
Description: Displacement of [3H]DPCPX from human cloned adenosine A2B receptor expressed in HEK293 cells. Type of data set: cell-based. In general terms: Loss of bound radioactivity is the signal in a displacement assay; it reports binding, not function.

For another data set, the target named is Adenosine receptor A2a (Homo sapiens, UniProt P29274). In words: Displacement of [3H]ZM241385 from human cloned adenosine A2A receptor expressed in human HeLa cells. Type of data set: cell-based.
The nature of data set [2]: Solubility in 50 mM Tris/HCl buffer at pH 7.4 by turbidimetric method. Type of data set: physicochemical. Summed up: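 DMSO stock added stepwise (about 14 additions) to 50 mM Tris/HCl pH 7.4 at room temperature, final DMSO below 5%; precipitation detected as UV absorbance rise at 600–800 nm; solubility limit from bilinear fit of absorbance versus DMSO.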
The next data set has as its target Adenosine receptor A3 (Homo sapiens, UniProt P0DMS8). In words: Displacement of [3H]NECA from human cloned adenosine A3 receptor expressed in human HeLa cells. The data set is classed as cell-based.

What is called Ki is a measure of affinity in units of concentration, obtained from inhibition or displacement. Lower therefore signals higher affinity. For orientation: kinetic solubility means the concentration staying in solution when a stock, usually in DMSO, is diluted into the medium. Regarding `CCCn1c(=O)c2[nH]c(-c3ccc(OCC(=O)N4CCN(Cc5ccccc5)CC4)cc3)c(O)c2n(CCC)c1=O`, the “log K” value in data set [1] is reported as 0.29. Also, the values for the inhibition constant Ki at Adenosine receptor A2b, at Adenosine receptor A2a and at Adenosine receptor A3 were 0.0026 µM, 0.092 µM and 0.891 µM, respectively. In data set [2], this compound returned a kinetic solubility of 10 µg/mL (≈ 17.9 µM).
